Species: Homo sapiens
Experiment: Selectivity ratio of Ki for human recombinant adenosine A1 receptor to Ki for human recombinant adenosine A2A receptor

Ratio Ki: 8
SMILES: Cn1c(-c2ccco2)nc2c(N)ncnc21
